In ChEMBL document CHEMBL1153304, “2,4-Diaminopyridine delta-opioid receptor agonists and their associated hERG pharmacology” (Bioorg Med Chem Lett, 2009):
pEC50: −log10 of the molar value.

biological target: Delta-type opioid receptor (Homo sapiens, UniProt P41143); experiment: Agonist activity at delta opioid receptor expressed in CHO cells assessed as inhibition of forskolin-stimulated cAMP production by ALPHAscreen assay

Question: How did the pEC50 turn out when `Nc1ccnc(N2CCC(n3c(=O)n(-c4ccccc4)c4cccnc43)CC2)c1` was run?
Answer: Its pEC50 is 7.80.

Question: `COc1ccc(-n2c(=O)n(C3CCN(c4cc(N)ccn4)CC3)c3ncccc32)cc1` was tested. Which pEC50 did it give?
Answer: The pEC50 was 8.52.

Question: With `Nc1ccnc(N2CCC(n3c(=O)n(CC4CC4)c4cccnc43)CC2)c1` as the molecule, how does the pEC50 read?
Answer: Its pEC50 is 7.39.

Question: `Nc1ccnc(N2CCC(n3c(=O)n(Cc4ccccc4)c4cccnc43)CC2)c1` was tested. Which pEC50 did it give?
Answer: The pEC50 was 7.55.
